Reference: patent US20090099157A1, “TETRAHYDRO-PYRAZOLO-PYRIDINE THIOETHER MODULATORS OF CATHEPSIN S” (priority 2007, published 2009)
pIC50: −log10 of the molar value.

Protein sequences, listed by entry. Tags and fused reporters are not part of them. Residues count along the entry.
UniProt P25774, 115-331: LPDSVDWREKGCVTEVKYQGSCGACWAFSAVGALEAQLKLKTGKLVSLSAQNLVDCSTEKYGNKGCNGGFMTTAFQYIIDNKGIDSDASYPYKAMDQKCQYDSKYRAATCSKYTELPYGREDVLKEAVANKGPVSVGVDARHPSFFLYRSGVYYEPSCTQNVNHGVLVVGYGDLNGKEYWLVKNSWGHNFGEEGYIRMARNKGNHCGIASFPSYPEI

Target: Recombinant human cathepsin S (CatS) (Homo sapiens, UniProt P25774)
Experiment: biochemical

| pIC50 | Compound |
| --- | --- |
| 6.26 | CS(=O)(=O)N1CCc2c(c(-c3ccc(C(F)(F)F)c(SCCN4CCOCC4)c3)nn2CC(O)CN2CCC(O)CC2)C1 (stereo not shown) [Example 406, 1-{2-Hydroxy-3-[5-(methylsulfonyl)-3-{3-[(2-morpholin-4-ylethyl)sulfanyl]-4-(trifluoromethyl)phenyl}-4,5,6,7-tetrahydro-1H-pyrazolo[4,3-c]pyridin-1-yl]propyl}piperidin-4-ol] |
| 6.10 | OC(CN1CCC(Oc2ncccn2)CC1)Cn1nc(-c2ccc(C(F)(F)F)c(SCCN3CCC(F)(F)C3)c2)c2c1CCNC2 (stereo not shown) [Example 519, 1-{3-[3-{[2-(3,3-Difluoropyrrolidin-1-yl)ethyl]sulfanyl}-4-(trifluoromethyl)phenyl]-4,5,6,7-tetrahydro-1H-pyrazolo[4,3-c]pyridin-1-yl}-3-[4-(pyrimidin-2-yloxy)piperidin-1-yl]propan-2-ol] |
| < 4.70 | CC(=O)N1CCN(CC(O)Cn2nc(-c3ccc(C(F)(F)F)c(SCCN4CCCCC4)c3)c3c2CCNC3)CC1 (stereo not shown) [Example 308, 1-(4-Acetylpiperazin-1-yl)-3-(3-{3-[(2-piperidin-1-ylethyl)sulfanyl]-4-(trifluoromethyl)phenyl}-4,5,6,7-tetrahydro-1H-pyrazolo[4,3-c]pyridin-1-yl)propan-2-ol] |
| 6.72 | CC(=O)N1CCN(CCSc2cc(-c3nn(CC(O)CN4CCC(N5CCCC5=O)CC4)c4c3CN(S(C)(=O)=O)CC4)ccc2C(F)(F)F)CC1 (stereo not shown) [Example 845, 1-[1-(3-{3-[3-{[2-(4-Acetylpiperazin-1-yl)ethyl]sulfanyl}-4-(trifluoromethyl)phenyl]-5-(methylsulfonyl)-4,5,6,7-tetrahydro-1H-pyrazolo[4,3-c]pyridin-1-yl}-2-hydroxypropyl)piperidin-4-yl]pyrrolidin-2-one] |
| < 4.70 | OC(CN1CCOCC1)Cn1nc(-c2ccc(C(F)(F)F)c(SCCN3CCCCC3)c2)c2c1CCNC2 (stereo not shown) [Example 292, 1-Morpholin-4-yl-3-(3-{3-[(2-piperidin-1-ylethyl)sulfanyl]-4-(trifluoromethyl)phenyl}-4,5,6,7-tetrahydro-1H-pyrazolo[4,3-c]pyridin-1-yl)propan-2-ol] |
| 6.72 | CC1CCCCN1C(=O)CSc1cc(-c2nn(CCCN3CCC(N4CCCC4=O)CC3)c3c2CN(S(C)(=O)=O)CC3)ccc1C(F)(F)F (stereo not shown) [Example 81, 1-{1-[3-(5-Methanesulfonyl-3-{3-[2-(2-methyl-piperidin-1-yl)-2-oxo-ethylsulfanyl]-4-trifluoromethyl-phenyl}-4,5,6,7-tetrahydro-pyrazolo[4,3-c]pyridin-1-yl)-propyl]-piperidin-4-yl}-pyrrolidin-2-one] |
| 7.07 | CS(=O)(=O)N1CCc2c(c(-c3ccc(C(F)(F)F)c(SCC(=O)N4CC[C@H](O)C4)c3)nn2CC(O)CN2CCC(NC(=O)CO)CC2)C1 (stereo partly drawn) [Example 695, 2-Hydroxy-N-[1-(2-hydroxy-3-{3-[3-({2-[(3S)-3-hydroxypyrrolidin-1-yl]-2-oxoethyl}sulfanyl)-4-(trifluoromethyl)phenyl]-5-(methylsulfonyl)-4,5,6,7-tetrahydro-1H-pyrazolo[4,3-c]pyridin-1-yl}propyl)piperidin-4-yl]acetamide] |
| 6.23 | CC1CCN(C[C@H](O)Cn2nc(-c3ccc(C(F)(F)F)c(SCCN4CC[C@H](F)C4)c3)c3c2CCN(S(C)(=O)=O)C3)CC1 [Example 409, (2S)-1-{3-[3-({2-[(3S)-3-Fluoropyrrolidin-1-yl]ethyl}sulfanyl)-4-(trifluoromethyl)phenyl]-5-(methylsulfonyl)-4,5,6,7-tetrahydro-1H-pyrazolo[4,3-c]pyridin-1-yl}-3-(4-methylpiperidin-1-yl)propan-2-ol] |
| 7.46 | CS(=O)(=O)N1CCc2c(c(-c3ccc(C(F)(F)F)c(SCC(=O)N4CCOCC4)c3)nn2CC(O)CN2CCC(c3n[nH]c(=O)[nH]3)CC2)C1 (stereo not shown) [Example 750, 5-(1-{2-Hydroxy-3-[5-(methylsulfonyl)-3-{3-[(2-morpholin-4-yl-2-oxoethyl)sulfanyl]-4-(trifluoromethyl)phenyl}-4,5,6,7-tetrahydro-1H-pyrazolo[4,3-c]pyridin-1-yl]propyl}piperidin-4-yl)-2,4-dihydro-3H-1,2,4-triazol-3-one] |
| 6.26 | COc1cccc(N2CCN(CC(O)Cn3nc(-c4ccc(C(F)(F)F)c(SCCN5CCC(F)(F)C5)c4)c4c3CCNC4)CC2)c1 (stereo not shown) [Example 581, 1-{3-[3-{[2-(3,3-Difluoropyrrolidin-1-yl)ethyl]sulfanyl}-4-(trifluoromethyl)phenyl]-4,5,6,7-tetrahydro-1H-pyrazolo[4,3-c]pyridin-1-yl}-3-{4-[3-(methyloxy)phenyl]piperazin-1-yl}propan-2-ol] |
| 7.52 | CC1C(=O)NCCN1CCSc1cc(-c2nn(CC(O)CN3CCC(c4ccccn4)CC3)c3c2CN(S(C)(=O)=O)CC3)ccc1C(F)(F)F (stereo not shown) [Example 168, 4-(2-{[5-{1-[2-Hydroxy-3-(4-pyridin-2-ylpiperidin-1-yl)propyl]-5-(methylsulfonyl)-4,5,6,7-tetrahydro-1H-pyrazolo[4,3-c]pyridin-3-yl}-2-(trifluoromethyl)phenyl]sulfanyl}ethyl)-3-methylpiperazin-2-one] |
| 7.60 | CS(=O)(=O)N1CCc2c(c(-c3ccc(C(F)(F)F)c(SCCN4CCCC4)c3)nn2CC(O)CN2CCC(c3ccccc3)CC2)C1 (stereo not shown) [Example 616, 1-[5-(Methylsulfonyl)-3-{3-[(2-pyrrolidin-1-ylethyl)sulfanyl]-4-(trifluoromethyl)phenyl}-4,5,6,7-tetrahydro-1H-pyrazolo[4,3-c]pyridin-1-yl]-3-(4-phenylpiperidin-1-yl)propan-2-ol] |
| 7.05 | CCOC(=O)NC1CCN(CCCn2nc(-c3ccc(C(F)(F)F)c(SCCN4CCCCC4)c3)c3c2CCN(S(C)(=O)=O)C3)CC1 [Example 150, Ethyl(1-{3-[5-(methylsulfonyl)-3-{3-[(2-piperidin-1-ylethyl)sulfanyl]-4-(trifluoromethyl)phenyl}-4,5,6,7-tetrahydro-1H-pyrazolo[4,3-c]pyridin-1-yl]propyl}piperidin-4-yl)carbamate] |
| 6.92 | CS(=O)(=O)N1CCc2c(c(-c3ccc(C(F)(F)F)c(SCCN4CCCC(F)(F)C4)c3)nn2C[C@@H](O)CN2CCC(C(N)=O)CC2)C1 [Example 668, 1-[(2S)-3-{3-[3-{[2-(3,3-Difluoropiperidin-1-yl)ethyl]sulfanyl}-4-(trifluoromethyl)phenyl]-5-(methylsulfonyl)-4,5,6,7-tetrahydro-1H-pyrazolo[4,3-c]pyridin-1-yl}-2-hydroxypropyl]piperidine-4-carboxamide] |
| 6.25 | CS(=O)(=O)N1CCc2c(c(-c3ccc(C(F)(F)F)c(SCCN4CCCCC4)c3)nn2CCCN2CCC(N3CCCC3)CC2)C1 [Example 55, 5-Methanesulfonyl-3-[3-(2-piperidin-1-yl-ethylsulfanyl)-4-trifluoromethyl-phenyl]-1-[3-(4-pyrrolidin-1-yl-piperidin-1-yl)-propyl]-4,5,6,7-tetrahydro-1H-pyrazolo[4,3-c]pyridine] |
| 6.40 | CS(=O)(=O)N1CCc2c(c(-c3ccc(C(F)(F)F)c(SCC(=O)N4CCOCC4)c3)nn2CCCN2CCC(N3CCCC3)CC2)C1 [Example 110, 2-(5-{5-Methanesulfonyl-1-[3-(4-pyrrolidin-1-yl-piperidin-1-yl)-propyl]-4,5,6,7-tetrahydro-1H-pyrazolo[4,3-c]pyridin-3-yl}-2-trifluoromethyl-phenylsulfanyl)-1-morpholin-4-yl-ethanone] |
| 6.32 | CS(=O)(=O)NCCSc1cc(-c2nn(CC(O)CN3CCC(N4CCCC4)CC3)c3c2CN(S(C)(=O)=O)CC3)ccc1C(F)(F)F (stereo not shown) [Example 666, N-(2-{[5-{1-[2-Hydroxy-3-(4-pyrrolidin-1-ylpiperidin-1-yl)propyl]-5-(methylsulfonyl)-4,5,6,7-tetrahydro-1H-pyrazolo[4,3-c]pyridin-3-yl}-2-(trifluoromethyl)phenyl]sulfanyl}ethyl)methanesulfonamide] |
| 6.77 | CS(=O)(=O)N1CCc2c(c(-c3ccc(C(F)(F)F)c(SCCN4CC5CCCC5C4)c3)nn2C[C@@H](O)CN2CCCCC2)C1 (stereo partly drawn) [Example 216, (2S)-1-{3-[3-{[2-(Hexahydrocyclopenta[c]pyrrol-2(1H)-yl)ethyl]sulfanyl}-4-(trifluoromethyl)phenyl]-5-(methylsulfonyl)-4,5,6,7-tetrahydro-1H-pyrazolo[4,3-c]pyridin-1-yl}-3-piperidin-1-ylpropan-2-ol] |
| 6.62 | CS(=O)(=O)N1CCc2c(c(-c3ccc(C(F)(F)F)c(SCC(=O)N4CCOCC4)c3)nn2CCCN2CCC(C(F)(F)F)CC2)C1 [Example 111, 2-(5-{5-Methanesulfonyl-1-[3-(4-trifluoromethyl-piperidin-1-yl)-propyl]-4,5,6,7-tetrahydro-1H-pyrazolo[4,3-c]pyridin-3-yl}-2-trifluoromethyl-phenylsulfanyl)-1-morpholin-4-yl-ethanone] |
| 6.01 | O=C(CSc1cc(-c2nn(CC(O)CN3CCC(O)(c4ccccn4)CC3)c3c2CNCC3)ccc1C(F)(F)F)N1CCOCC1 (stereo not shown) [Example 461, 1-[2-Hydroxy-3-(3-{3-[(2-morpholin-4-yl-2-oxoethyl)sulfanyl]-4-(trifluoromethyl)phenyl}-4,5,6,7-tetrahydro-1H-pyrazolo[4,3-c]pyridin-1-yl)propyl]-4-pyridin-2-ylpiperidin-4-ol] |
| 6.49 | CSCC(=O)N1CCc2c(c(-c3ccc(C(F)(F)F)c(SCCN4CCCC4)c3)nn2CC(O)CN2CCC(NC(=O)CO)CC2)C1 (stereo not shown) [Example 638, 2-Hydroxy-N-{1-[2-hydroxy-3-(5-[(methylsulfanyl)acetyl]-3-{3-[(2-pyrrolidin-1-ylethyl)sulfanyl]-4-(trifluoromethyl)phenyl}-4,5,6,7-tetrahydro-1H-pyrazolo[4,3-c]pyridin-1-yl)propyl]piperidin-4-yl}acetamide] |

| Compound | pIC50 |
| --- | --- |
| CS(=O)(=O)N1CCc2c(c(-c3ccc(C(F)(F)F)c(SCCN4CCC(O)(c5ccccn5)CC4)c3)nn2C[C@@H](O)CN2CCCCC2)C1 [Example 222, 1-(2-{[5-{1-[(2S)-2-Hydroxy-3-piperidin-1-ylpropyl]-5-(methylsulfonyl)-4,5,6,7-tetrahydro-1H-pyrazolo[4,3-c]pyridin-3-yl}-2-(trifluoromethyl)phenyl]sulfanyl}ethyl)-4-pyridin-2-ylpiperidin-4-ol] | 6.02 |
